Consider 1 substance from article PMC11247081 (Signal Transduction and Targeted Therapy, 2024).

Series [1] can be described thus: Immunogenicity (SHR-A1811 antibody in blood samples). The format is in vivo, human. As to conditions: samples from the 63 patients. The procedure:
Blood samples for pharmacokinetic analyses were collected pre-dose, within 5 min, 2, 8, 24, 72 h, 7, 14 day after the end of infusion during the first cycle; pre-dose and within 5 min post-dose on day 1 of cycle 2; pre-dose, within 5 min, 2 h, 7, and 14 day post-dose during cycle 3; pre-dose and post-dose on day 1 of cycles 4, 6, and 8; and pre-dose every 3 cycles since cycle 11. Blood samples for immunogenicity analyses were collected pre-dose on day 1 of cycle 1, 2, 3, 4, 6 and 8; from cycle 11 onwards, samples were collected pre-dose on day 1 of every 3 cycles.

The subject of the next series is ctDNA. The series is described as follows: Exploratory ctDNA biomarker analysis (NGS, 1021-gene panel). The format is in vivo, human. Conditions: biomarker subset of 28 consecutive patients at a single study center. The procedure:
For exploratory biomarker analysis, ctDNA was evaluated with blood samples collected at baseline, and on the first day of each treatment cycle in a subset of 28 consecutive patients from a single center (Supplementary Table 6). […] The DNA library construction and sequencing were supported by the Geneplus-Beijing Institute (Beijing, China) using a DNBSEQ-T7RS sequencer (MGI Tech). See supplementary methods for details on NGS. Additionally, treatment efficacy was analyzed according to HER2 mutation subtype (NGS or PCR on blood or tumor tissue; n = 63) and HER2 expression (immunohistochemistry on available tumor tissue; n = 30).
Pharmacokinetic parameters were estimated by non-compartmental method using Phoenix WinNonlin software (version 8.3; A Certara Company, USA). The 95% CIs of ORR and DCR were calculated with the use of Clopper Pearson method. Median PFS and DoR were estimated using the Kaplan-Meier method, with the corresponding 95% CIs calculated using the Brookmeyer-Crowley methods with log-log transformation. For biomarker analysis, Pearson correlation was used to assess the linear association between ctDNA levels and PFS time; the rank-sum test compared ctDNA levels between drug-resistant and sensitive patients; Fisher’s exact test evaluated the proportion of drug-resistant and sensitive patients with ctDNA clearance within 6 months; and the Log-rank test compared PFS outcomes between patients with and without ctDNA clearance within 6 months. Statistical analyses were conducted using SAS (version 9.4) or R (version 4.2.0).
Cell-free DNA (cfDNA) and germline genomic DNA (gDNA) were extracted from plasma and leukocytes using the QIAamp Circulating Nucleic Acid Kit and the QIAamp DNA Blood Mini Kit (Qiagen, Hilden, Germany), respectively, cfDNA with ~170 bp and gDNA with > 500 bp were retained for subsequent processing. […] GATK was used to de-duplicate the reads, local realignment and base quality recalibration, and somatic mutation calling was performed using MuTect2. […]

Turning to SHR-A1811, in series [1], the “Samples tested positive for the SHR-A1811 antibody” value was “None”. In the series with ctDNA, this substance registered a disease control rate of 96.4%, a median progression-free survival of 7.1 months and an objective response rate of 46.4%.
